AlphaSeq binding of Ab-91 heavy chain variants to a spike HR2 peptide

Source: Engelhart et al. 2022 (doi:10.1038/s41597-022-01779-4), MIT Lincoln Laboratory and A-Alpha Bio; data file from the FLAb repository.

Target peptide (SARS-CoV-2 spike, HR2 region): PDVDLGDISGINAS

Ab-91 is the parent antibody, in scFv form: VL, then a (GGGGS)3 linker, then VH. The light chain is unchanged in all variants.
VL: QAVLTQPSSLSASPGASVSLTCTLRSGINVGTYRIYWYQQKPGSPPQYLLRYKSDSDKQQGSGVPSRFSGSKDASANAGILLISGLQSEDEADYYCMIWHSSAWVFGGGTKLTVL
VH: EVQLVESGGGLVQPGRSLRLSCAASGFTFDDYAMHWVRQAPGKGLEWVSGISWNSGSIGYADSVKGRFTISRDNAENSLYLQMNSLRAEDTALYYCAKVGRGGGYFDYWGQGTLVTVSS

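The parent was found by panning a naive human phage display library on the peptide. AAYL51 was designed without a model: most single CDR substitutions and a random sample of double and triple ones. The assay is AlphaSeq: two haploid yeast populations carry antibody and antigen on their surface. Mating (16 h, 30 °C) was followed by selection of diploids and sequencing of their barcodes. Scores were corrected for input abundance and mapped to Kd with protein pairs of known affinity run in the same pool. Mating was done three times.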

Changes read parent residue, position, new residue, counted from the first residue of the VH shown.
Affinities are written as log10 Kd with Kd in nM; a lower number is a better binder.
Averages over replicates are reported, and they cover detected replicates only.
"nd" marks a missing value. The strain was present, yet no cells mated with the target were sequenced in that replicate, which points to weak or no binding.

changes,log10 Kd (nM) by replicate,mean log10 Kd (nM),signal with controls
D31P H35G G56H,nd / nd / nd,nd,0 of 9
F27E S57R G102M,6.03 / nd / 4.83,5.43,4 of 9 (5.32)
G50C R101Q G103K,nd / nd / nd,nd,0 of 9
G56T Y60T D62N,3.60 / nd / 4.34,3.97,3 of 9 (4.74)
I51S G104H Y105H,4.17 / 3.77 / nd,3.97,3 of 9 (4.75)
H35V G56Q Y108N,nd / nd / nd,nd,1 of 9 (4.26)
M34Y A61P G100A,nd / nd / nd,nd,0 of 9
Y32M A33W I51N,nd / nd / nd,nd,0 of 9
A33I I51K D62I,nd / nd / nd,nd,2 of 9 (5.48)
W53Y F106Y D107G,nd / nd / nd,nd,1 of 9 (3.95)
D62G Y105I,4.79 / nd / nd,4.79,2 of 9 (4.60)
S55F G102Y,3.66 / nd / nd,3.66,1 of 9 (4.68)
S52N S55I S63W,5.94 / nd / nd,5.94,0 of 9
T28V F29V V64E,nd / nd / nd,nd,0 of 9
N54K V99W R101N,nd / 6.20 / nd,6.20,2 of 9 (4.24)
G50W V99R G100V,nd / nd / nd,nd,1 of 9 (4.40)
I51M Y60Q K65E,4.52 / nd / nd,4.52,1 of 9 (4.61)
D30C Y32W G50W,nd / nd / 4.30,4.30,0 of 9
D31I S52H G102E,nd / 4.60 / 5.32,4.96,3 of 9 (5.44)
D31T W53V G104Y,nd / nd / 3.92,3.92,3 of 9 (4.49)
F106W,2.83 / 2.61 / 1.99,2.48,0 of 9
S63M V64D R101W,nd / nd / nd,nd,1 of 9 (4.86)
T28R Y32G G102Y,4.00 / 5.40 / 6.06,5.15,6 of 9 (5.59)
D31C Y32V R101V,1.75 / 1.91 / 0.78,1.48,3 of 9 (5.21)
M34S I51S S52D,nd / 5.01 / nd,5.01,1 of 9 (5.05)
D62I G102A,nd / nd / nd,nd,1 of 9 (3.51)
S63F R101I G102A,3.87 / nd / 4.33,4.10,3 of 9 (4.19)
F29S N54I R101P,nd / nd / nd,nd,1 of 9 (4.01)
A33L W53E F106P,nd / 4.42 / nd,4.42,3 of 9 (4.64)
G26N G50P,6.26 / nd / nd,6.26,4 of 9 (4.14)
M34R G50Q S55F,5.10 / 6.43 / nd,5.76,7 of 9 (4.92)
S57C D62Y V64W,nd / nd / nd,nd,0 of 9
D30Y,3.53 / 3.17 / 3.00,3.23,3 of 9 (5.39)
M34R S52F Y108Q,nd / 5.84 / 5.41,5.62,3 of 9 (5.50)
M34K I58P D107M,4.50 / 5.24 / nd,4.87,3 of 9 (4.73)
T28G D62K V64D,nd / 4.38 / nd,4.38,3 of 9 (4.02)
G26N D30L V99R,nd / nd / 4.08,4.08,1 of 9 (4.60)
F27Y D30I D31G,4.09 / nd / nd,4.09,3 of 9 (4.59)
G26S D107G,4.40 / nd / 3.45,3.93,3 of 9 (4.73)
Y32F S52H Y105F,nd / nd / nd,nd,1 of 9 (4.80)
M34N G56N F106V,nd / 5.15 / nd,5.15,0 of 9
G26N I51Q Y105I,4.37 / 4.68 / 5.24,4.76,1 of 9 (4.74)
D31Y S55C Y108F,4.58 / 4.00 / 3.05,3.88,5 of 9 (4.58)

In this assay the parent's reference entry averaged 1.86; its copy inside this library read 0.88.
Three control strains display no target. For library AAYL51, 21% of the pairings with them gave a signal, with a median of 4.54 and one signal in twenty below 3.26, so weak values seen in few replicates may be background. The control count says in how many pairings with the empty strains this scFv gave a signal, with their mean in brackets.